Results published in US7659240B2, “Mucin immobilized chromatography” (Vertex Pharmaceuticals Incorporated, priority 2002, dated 2010).
Counter-ions that a name gives are not always drawn.

Test system: mucin immobilized to PC IAM particles
Assay: pH and mucin layer thickness dependence of partition ratio on MIC columns (1:2 and 2:1)
Conditions: for (1:2) k′ (pH 3) / (1:2) k′ (pH 5) / (1:2) k′ (pH 7): column 1:2 mucin to PC IAM, 0.32 μm mucin layer; for (1:2) k′ (pH 3) / (2:1) k′ (pH 3): mobile phase pH 3; for (1:2) k′ (pH 5) / (2:1) k′ (pH 5): mobile phase pH 5; for (1:2) k′ (pH 7) / (2:1) k′ (pH 7): mobile phase pH 7; for (2:1) k′ (pH 3) / (2:1) k′ (pH 5) / (2:1) k′ (pH 7): column 2:1 mucin to PC IAM, 0.36 μm mucin layer

| SMILES | (1:2) k′ (pH 3) | (1:2) k′ (pH 5) | (1:2) k′ (pH 7) | (2:1) k′ (pH 3) | (2:1) k′ (pH 5) | (2:1) k′ (pH 7) |
| --- | --- | --- | --- | --- | --- | --- |
| CC(C)(C)NC[C@H](O)COc1nsnc1N1CCOCC1 [Timolol] | 44.00 | 30.67 | 32.33 | 33.29 | 27.57 | 35.67 |
| NS(=O)(=O)c1cc2c(cc1Cl)NCNS2(=O)=O [hydrochlorothiazide] | 70.67 | 70.67 | 67.33 | 14.71 | 13.29 | 55.67 |
| C=C[C@H]1C[N@@]2CC[C@H]1C[C@@H]2[C@@H](O)c1ccnc2ccc(OC)cc12 [quinidine, HCl] | 49.00 | 87.33 | 99.00 | 37.57 | 63.29 | 132.33 |
| CNC(=C[N+](=O)[O-])NCCSCc1ccc(CN(C)C)o1.Cl [ranitidine•HCl] | 35.67 | 35.67 | 32.33 | 27.57 | 27.57 | 37.33 |
